## Apparent affinities of Ab-95 variants for a coronavirus HR2 peptide

The measurements come from Engelhart et al. 2022 (doi:10.1038/s41597-022-01779-4) through the FLAb antibody collection.

The target is the same throughout: PDVDLGDISGINAS, from the HR2 region of SARS-CoV-2 spike.

Parent: Ab-95, a human scFv built as VH, a 15-residue (Gly4Ser)3 linker, VL. Only the CDRs of the light chain vary.
VH: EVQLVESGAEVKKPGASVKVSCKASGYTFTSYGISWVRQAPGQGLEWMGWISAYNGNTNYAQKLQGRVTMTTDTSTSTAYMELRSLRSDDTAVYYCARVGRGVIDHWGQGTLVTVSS
VL: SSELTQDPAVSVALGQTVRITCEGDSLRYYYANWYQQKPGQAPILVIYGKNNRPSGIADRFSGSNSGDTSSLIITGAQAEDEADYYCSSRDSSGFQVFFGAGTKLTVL

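Phage display of a naive human antibody library on the peptide gave the parent. The library (AAYL52) carries one to three amino acid substitutions per variant, with no insertions or deletions. Affinity was read by AlphaSeq, a pooled yeast mating assay with surface-displayed partners. Mating (16 h, 30 °C) was followed by selection of diploids and sequencing of their barcodes. Each replicate has its own calibration line, from reference interactions of the BCL2 family. Mating was done three times.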

Positions count from residue 1 of the parent VL; E23G puts G in place of E. Affinities are written as log10 Kd with Kd in nM; a lower number is a better binder. The mean shown is taken over the replicates in which the pair was detected. "nd" marks a missing value. The strain was present, yet no cells mated with the target were sequenced in that replicate, which points to weak or no binding. Empty control strains, which show no peptide, gave a signal in 28% of pairings with library AAYL52; the median was 3.91 and 95% of these signals were weaker than 2.90. No background was subtracted. For each scFv, signals with the empty controls are counted beside the result. For reference, the parent read 2.31 as the reference entry and 2.25 as a member of this library.

With E23G+Q96G+V97H the result was 3.19, nd, nd (controls 3 of 9).
With E23H+Y29K the result was 2.62, 2.07, 2.01 (mean 2.24; controls 3 of 9).
With L27T+Y29P+S55Q the result was 2.46, 2.51, 2.16 (mean 2.38; controls 2 of 9).
With L27N+Y30R+N52F the result was nd, 2.44, nd (controls 1 of 9).
With R28E+A32N+K50N the result was 2.70, 2.92, 3.04 (mean 2.89; controls 7 of 9).
With E23D+S88T+S92G the result was nd, nd, nd (controls 3 of 9).
With N52Y+G94W the result was 2.43, 2.92, 2.58 (mean 2.64; controls 4 of 9).
With S26D+N52C+V97S the result was 5.05, 5.19, 4.19 (mean 4.81; controls 2 of 9).
With N33W+Q96S the result was 4.44, nd, nd (controls 2 of 9).
With N52I+R90E+D91M the result was 3.32, 5.05, nd (mean 4.19; controls 4 of 9).
With S26I+S92W+F98V the result was 2.27, 2.07, 2.09 (mean 2.15; controls 1 of 9).
With Y29H+G94D+F98Q the result was 4.42, nd, nd (controls 1 of 9).
With N33S+N52Y+F95L the result was 4.23, 3.76, 3.02 (mean 3.67; controls 4 of 9).
With G24A+D25G+S93P the result was 3.61, 4.71, nd (mean 4.16; controls 1 of 9).
With D25V+K50M+N52D the result was 3.37, 3.05, 3.85 (mean 3.42; controls 1 of 9).
With G24F+Y30G+S93N the result was 1.92, 1.62, 1.55 (mean 1.70; controls 0 of 9).
With G24K+Y31V the result was nd, nd, 2.44 (controls 1 of 9).
With N52F+S89V+F95G the result was 3.67, 4.28, 3.86 (mean 3.94; controls 3 of 9).
With G24Y+R28P+R90M the result was 3.59, 3.57, nd (mean 3.58; controls 4 of 9).
With S92R+F95G the result was 3.26, 2.94, 2.85 (mean 3.01; controls 1 of 9).
With L27F+N52R+S89Q the result was 3.92, nd, nd (controls 0 of 9).
With S26Q+N33D+K50G the result was nd, nd, 4.25 (controls 1 of 9).
With V97A+F98P the result was nd, nd, nd (controls 2 of 9).
With E23P+F98E the result was nd, nd, nd (controls 0 of 9).
With Y29P+S89P+D91E the result was 3.28, nd, 3.65 (mean 3.46; controls 1 of 9).
With R28H+N33H+S92C the result was 2.77, 3.91, nd (mean 3.34; controls 0 of 9).
With R28P+D91Q+G94T the result was nd, 3.44, 2.71 (mean 3.08; controls 1 of 9).
With L27S+K50T+D91S the result was nd, nd, nd (controls 2 of 9).
With G24D+P54G+Q96D the result was 3.35, 2.99, 3.83 (mean 3.39; controls 5 of 9).
With G24D+S92P the result was 2.98, 3.07, 2.76 (mean 2.94; controls 5 of 9).
With Y30D+A32M+Q96M the result was 4.79, nd, nd (controls 6 of 9).
With N51H+S88P+S92Q the result was 4.57, nd, nd (controls 3 of 9).
With D25E+Y30A the result was 1.03, 0.95, 0.61 (mean 0.86; controls 4 of 9).
With E23S+S88Q+G94F the result was 1.99, 1.88, 2.46 (mean 2.11; controls 5 of 9).
With D25L+R53Y+S93E the result was 3.51, nd, 4.52 (mean 4.02; controls 2 of 9).
With E23C+D25L+R53M the result was nd, 3.96, nd (controls 2 of 9).
With D25V+L27G+A32V the result was 2.33, 2.15, 2.08 (mean 2.19; controls 0 of 9).
With G24P+R28L+S55F the result was nd, nd, nd (controls 0 of 9).
With N33P+G49R+K50N the result was nd, nd, nd (controls 2 of 9).
With N51V+P54H+S89M the result was nd, nd, 3.65 (controls 0 of 9).
With E23T+K50N+V97G the result was 2.47, 2.54, 2.90 (mean 2.64; controls 3 of 9).
With G49P+N51L+R53Y the result was nd, 4.75, nd (controls 1 of 9).
With D25T+S55D the result was 1.83, 1.98, 1.36 (mean 1.72; controls 1 of 9).
With D25S+K50F+P54A the result was 4.52, 3.78, 3.95 (mean 4.08; controls 2 of 9).
With D25T+S55A+F95N the result was 2.36, 2.68, 1.94 (mean 2.33; controls 6 of 9).
With A32R+N33P+N51G the result was nd, nd, nd (controls 1 of 9).
With A32P+N51S+R90A the result was nd, nd, 3.35 (controls 1 of 9).
With N33E+K50S+S55E the result was nd, nd, nd (controls 1 of 9).
With Y29R+F98S the result was 2.56, 3.13, 2.90 (mean 2.86; controls 3 of 9).
With R28S+Y30A+Y31Q the result was 1.14, 1.20, 0.90 (mean 1.08; controls 5 of 9).
With S55V+D91V+F98L the result was 3.00, 3.29, 2.77 (mean 3.02; controls 2 of 9).

Repeated from above, the 4 best binders with a signal in all replicates:

For D25E+Y30A, the assay gave 1.03, 0.95, 0.61 (mean 0.86; controls 4 of 9).
For R28S+Y30A+Y31Q, the assay gave 1.14, 1.20, 0.90 (mean 1.08; controls 5 of 9).
For G24F+Y30G+S93N, the assay gave 1.92, 1.62, 1.55 (mean 1.70; controls 0 of 9).
For D25T+S55D, the assay gave 1.83, 1.98, 1.36 (mean 1.72; controls 1 of 9).